Experimental data: publication PMC5038302 (Antimicrobial Agents and Chemotherapy, 2016)

The chains behind the UniProt entries cited, without tags or fusion partners. Residues count along the entry.
UniProt P26918, 28-254: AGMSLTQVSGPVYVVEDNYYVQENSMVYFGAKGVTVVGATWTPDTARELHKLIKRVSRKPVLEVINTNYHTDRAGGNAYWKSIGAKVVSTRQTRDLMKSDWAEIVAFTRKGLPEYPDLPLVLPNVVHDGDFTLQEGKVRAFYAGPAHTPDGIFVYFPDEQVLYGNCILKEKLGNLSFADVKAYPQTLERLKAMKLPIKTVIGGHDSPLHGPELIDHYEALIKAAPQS
UniProt C7C422, 29-270 M67C: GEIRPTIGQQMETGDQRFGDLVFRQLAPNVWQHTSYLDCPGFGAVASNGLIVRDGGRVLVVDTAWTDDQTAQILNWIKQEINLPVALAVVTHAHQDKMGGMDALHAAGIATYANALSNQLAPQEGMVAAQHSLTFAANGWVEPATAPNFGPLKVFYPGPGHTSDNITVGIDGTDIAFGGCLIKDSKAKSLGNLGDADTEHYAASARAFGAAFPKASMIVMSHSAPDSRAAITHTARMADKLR

Experiments:
CphA = CphA (Aeromonas hydrophila, UniProt P26918)
[1] = tested on: 19F-labeled SPM-1* (SPM-1 Y152C); settings: SPM-1* 0.08 mM, avibactam 2 mM, 50 mM HEPES pH 7.5, 200 mM NaCl, 298 K
[2] = molecular target: 19F-labeled NDM-1* (NDM-1 M67C) (Klebsiella pneumoniae, UniProt C7C422, M67C); settings: NDM-1* 0.08 mM, avibactam 2 mM, 50 mM HEPES pH 7.5, 200 mM NaCl, 298 K

NC(=O)[C@@H]1CC[C@@H]2CN1C(=O)N2OS(=O)(=O)O [avibactam]
kcat/Km, cacodylate buffer (CphA; Caco-2, pH 7): <2 M⁻¹ s⁻¹ | v0/E0, HEPES buffer (CphA; pH 7.5): 0.35 min⁻¹ | Change of protein-bound 19F NMR signals on addition of avibactam [1]: clear shifts and broadening | Change of protein-bound 19F NMR signals on addition of avibactam [2]: clear shifts and broadening
